Patent US20180237542A1

Target: human TNF-α (human) (UniProt P01375)
Assay: cell-based or functional assay

hu TNFa (pM)	hu TNFa Fold Change	Substance
96.5 pM	0.666 fold	iPS: 376601 (bispecific antibody)
942 pM	6.49 fold	iPS: 376605 (bispecific antibody)
22.4 pM	0.154 fold	iPS: 376629 (bispecific antibody)
27.5 pM	0.19 fold	iPS: 376637 (bispecific antibody)
35.2 pM	0.243 fold	iPS: 376683 (bispecific antibody)
29.5 pM	0.203 fold	iPS: 376693 (bispecific antibody)
80.4 pM	0.554 fold	iPS: 376709 (bispecific antibody)
64.2 pM	0.443 fold	iPS: 376715 (bispecific antibody)
80.8 pM	0.557 fold	iPS: 376826 (bispecific antibody)
73.3 pM	0.506 fold	iPS: 376830 (bispecific antibody)
30.8 pM	0.212 fold	iPS: 376854 (bispecific antibody)
34.4 pM	0.237 fold	iPS: 376862 (bispecific antibody)
26.8 pM	0.185 fold	iPS: 376931 (bispecific antibody)
49.1 pM	0.339 fold	iPS: 376949 (bispecific antibody)
57.1 pM	0.394 fold	iPS: 376955 (bispecific antibody)
36.8 pM	0.254 fold	iPS: 377073 (bispecific antibody)
49.7 pM	0.342 fold	iPS: 377077 (bispecific antibody)
16.8 pM	0.116 fold	iPS: 377107 (bispecific antibody)
15.2 pM	0.105 fold	iPS: 377116 (bispecific antibody)
17 pM	0.117 fold	iPS: 377166 (bispecific antibody)
30.9 pM	0.213 fold	iPS: 377193 (bispecific antibody)
38.4 pM	0.265 fold	iPS: 377200 (bispecific antibody)
